Columns and labels:
[1] = test system: HCT116 human colorectal cancer cell line xenografts; test: HCT116 human colorectal cancer xenograft, tumor growth inhibition; assay type: in vivo; conditions: 70 x 2 (5/7 d) mg/kg x doses/day, day 15, P <0.001
[2] = test system: LS174T; test: 96 hour proliferation GI50, LS174T; conditions: Homo sapiens, read-out: 96 hour GI50
[3] = test system: hyperplastic intestinal crypt stem and TA cells; set-up: method as in Dale et al., 2015; conditions: Dox-inducible activated beta-catenin mouse model; ref Dale et al., 2015; cited from earlier work
[4] = test system: LS174T; test: 24 hour TCF/LEF reporter assay, LS174T; assay type: cell-based; conditions: Homo sapiens, read-out: 24 hour TCF/LEF Reporter assay IC50
[5] = target: GSK3β (Homo sapiens, UniProt P49841); test: Off-target kinase IC50, GSK3β; assay type: biochemical
[6] = test system: LS513 human colorectal cancer xenograft; test: LS513 human colorectal cancer xenograft, tumor growth inhibition; assay type: in vivo; conditions: 70 x 2 (3/7 d) and x 1 (2/7 d)b mg/kg x doses/day, day 17, P <0.001
Protocol: PDX experiments were conducted at Oncotest (Germany).

Chains of the proteins cited; added tags and fusions are not shown.
UniProt P49841, whole entry, species assumed: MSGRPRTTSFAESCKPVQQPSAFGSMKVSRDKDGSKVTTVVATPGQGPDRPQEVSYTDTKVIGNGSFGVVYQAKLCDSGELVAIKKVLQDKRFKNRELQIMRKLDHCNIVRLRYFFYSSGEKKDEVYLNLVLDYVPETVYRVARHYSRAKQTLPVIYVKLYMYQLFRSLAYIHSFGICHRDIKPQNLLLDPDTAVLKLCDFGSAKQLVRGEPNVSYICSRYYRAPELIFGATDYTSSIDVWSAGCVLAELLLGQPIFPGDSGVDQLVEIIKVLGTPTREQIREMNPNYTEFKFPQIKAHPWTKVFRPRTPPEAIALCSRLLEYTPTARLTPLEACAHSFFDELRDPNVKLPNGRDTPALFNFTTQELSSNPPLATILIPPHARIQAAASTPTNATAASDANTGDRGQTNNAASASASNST
UniProt Q04759, whole entry, species assumed: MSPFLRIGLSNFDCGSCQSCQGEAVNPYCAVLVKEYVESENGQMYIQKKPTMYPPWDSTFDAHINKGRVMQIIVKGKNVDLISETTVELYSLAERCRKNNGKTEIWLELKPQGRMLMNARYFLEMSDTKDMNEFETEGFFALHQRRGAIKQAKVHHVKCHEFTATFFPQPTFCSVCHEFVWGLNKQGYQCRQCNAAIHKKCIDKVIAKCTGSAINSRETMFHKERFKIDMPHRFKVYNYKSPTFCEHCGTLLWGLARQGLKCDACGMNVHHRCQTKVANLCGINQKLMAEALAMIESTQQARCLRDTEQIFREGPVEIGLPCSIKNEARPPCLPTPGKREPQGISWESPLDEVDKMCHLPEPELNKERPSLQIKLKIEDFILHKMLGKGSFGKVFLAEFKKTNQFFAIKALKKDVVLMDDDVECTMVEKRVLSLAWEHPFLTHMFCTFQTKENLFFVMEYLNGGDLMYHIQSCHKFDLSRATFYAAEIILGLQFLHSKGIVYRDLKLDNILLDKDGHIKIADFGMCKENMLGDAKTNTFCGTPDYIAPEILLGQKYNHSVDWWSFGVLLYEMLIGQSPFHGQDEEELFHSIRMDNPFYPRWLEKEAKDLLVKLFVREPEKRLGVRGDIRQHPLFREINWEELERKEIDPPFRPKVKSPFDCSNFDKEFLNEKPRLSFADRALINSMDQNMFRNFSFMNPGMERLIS

[7] = test system: RKO; test: 96 hour proliferation GI50, RKO; conditions: Homo sapiens, read-out: 96 hour GI50
[8] = target: PRKCQ (Homo sapiens, UniProt Q04759); test: Off-target kinase IC50, PRKCQ; assay type: biochemical
[9] = test system: SW837; test: 96 hour proliferation GI50, SW837; conditions: Homo sapiens, SW837, 96 h, read-out: 96 hour GI50
[10] = test system: HT29; test: 96 hour proliferation GI50, HT29; conditions: Homo sapiens, HT-29, 96 h, read-out: 96 hour GI50
[11] = test system: COLO205; test: 24 hour TCF/LEF reporter assay, COLO205; assay type: cell-based; conditions: Homo sapiens, COLO 205, 24 h, read-out: 24 hour TCF/LEF Reporter assay IC50
[12] = test system: LS174T; test: LS174T basal WNT-pathway luciferase reporter; conditions: Homo sapiens, read-out: LS174T IC50
[13] = test system: COLO205; test: 96 hour proliferation GI50, COLO205; conditions: Homo sapiens, COLO 205, 96 h, read-out: 96 hour GI50
[14] = test system: SW948; test: 96 hour proliferation GI50, SW948; conditions: Homo sapiens, SW948, 96 h, read-out: 96 hour GI50
[15] = test system: SW620; test: 96 hour proliferation GI50, SW620; conditions: Homo sapiens, SW-620, 96 h, read-out: 96 hour GI50
[16] = test system: DLD1; test: 24 hour TCF/LEF reporter assay, DLD1; assay type: cell-based; conditions: Homo sapiens, DLD-1, 24 h, read-out: 24 hour TCF/LEF Reporter assay IC50
[17] = test system: DLD1; test: 96 hour proliferation GI50, DLD1; conditions: Homo sapiens, DLD-1, 96 h, read-out: 96 hour GI50
[18] = test system: LS180; test: 24 hour TCF/LEF reporter assay, LS180; assay type: cell-based; conditions: Homo sapiens, LS180, 24 h, read-out: 24 hour TCF/LEF Reporter assay IC50
[19] = test system: p-STAT1^SER727; test: Inhibition of STAT1 SER727 phosphorylation in cells (target-engagement biomarker); conditions: read-out: p-STAT1^SER727 IC50
[20] = test system: RKO; test: 24 hour reporter assay, RKO negative control (EEF1A1 promoter-reporter); assay type: cell-based; conditions: Homo sapiens, read-out: 24 hour TCF/LEF Reporter assay IC50
[21] = test system: LS513; test: 96 hour proliferation GI50, LS513; conditions: Homo sapiens, LS-513, 96 h, read-out: 96 hour GI50
[22] = test system: LS180; test: 96 hour proliferation GI50, LS180; conditions: Homo sapiens, LS180, 96 h, read-out: 96 hour GI50
[23] = test system: hyperplastic intestinal crypt stem and TA cells; test: In vivo stem cell analysis, Dox-inducible activated beta-catenin mice; set-up: species or system mouse; conditions: 75 mg/kg x 3 over 24 hr
Protocol: In contrast, the gene expression in the TA fraction following treatment with 1 was similar to the effect of reducing the level of Dox from 2.0 to 0.1 mg/ml, but was different from the Dox withdrawal condition (Figure 5E). […] This implies that the inhibition of CDK8/19 by 1 reduces, rather than eliminates, WNT signaling in the oncogenically-activated stem cell compartment and it is this that alters the proportion of stem cells to proliferative TA cells in the hyperplastic crypt.
Crypt structures were isolated from inducible Tet-O-β-catenin mice following treatment regimes described in Figure 5—figure supplement 1 ([Jardé et al., 2013]). Mice were orally gavaged with 75 mg/kg 1 × 3 over 24 hr and doxycycline in drinking water supplemented with an i.p. dose of 0.1 mg/ml or 2.0 mg/ml doxycycline in PBS at time of gavage to maintain levels. Isolated crypts were dissociated into single cells, then resuspended in staining medium containing DAPI and the antibodies shown in Figure 5—source data 1.

[24] = test system: SW837; test: 24 hour TCF/LEF reporter assay, SW837; assay type: cell-based; conditions: Homo sapiens, SW837, 24 h, read-out: 24 hour TCF/LEF Reporter assay IC50

Compound: Cn1cc(-c2ccc(-c3cncc(Cl)c3N3CCC4(CCNC4=O)CC3)cc2)cn1 [CMPD 1]
- TGI [1]: 60%
- GI50 [2]: > 30000 nM
- Dose sufficient to inhibit WNT signaling [3]: > 37.5 mg/kg
- IC50 [4]: 34 nM
- IC50 [5]: 690 nM
- TGI [6]: 81%
- GI50 [7]: > 30000 nM
- IC50 [8]: 122 nM
- GI50 [9]: 6800 nM
- GI50 [10]: > 30000 nM
- IC50 [11]: 19 nM
- IC50 [12]: 23.1 ± 10.9 nM
- GI50 [13]: > 30000 nM
- GI50 [14]: > 30000 nM
- GI50 [15]: > 30000 nM
- IC50 [16]: 54 nM
- GI50 [17]: > 30000 nM
- IC50 [18]: 25 nM
- IC50 [19]: 23.3 ± 14.8 nM
- IC50 [20]: > 30000 nM
- GI50 [21]: > 30000 nM
- GI50 [22]: > 30000 nM
- Crypt cell population distribution (stem vs TA cells) [23]: shift in the population distribution from stem cell to TA
- IC50 [24]: 17 nM
